Data published in PubChem BioAssay AID540295 (The Scripps Research Institute Molecular Screening Center, 2011).
Values joined by “and” are separate entries in the source; they are usually repeats but may differ in a detail not shown here. Equal values may be shown once. This is a selection; strong and weak results do not stand in their true shares. Active and inactive are the calls of the source.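 Rule for the calls: active = inhibition above its plate's cutoff, the mean of tested wells on that plate plus 3 SD (cut at about 29% in these data); inactive = the rest.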

Chains of the proteins cited; added tags and fusions are not shown.
UniProt P32245, whole entry, looked up: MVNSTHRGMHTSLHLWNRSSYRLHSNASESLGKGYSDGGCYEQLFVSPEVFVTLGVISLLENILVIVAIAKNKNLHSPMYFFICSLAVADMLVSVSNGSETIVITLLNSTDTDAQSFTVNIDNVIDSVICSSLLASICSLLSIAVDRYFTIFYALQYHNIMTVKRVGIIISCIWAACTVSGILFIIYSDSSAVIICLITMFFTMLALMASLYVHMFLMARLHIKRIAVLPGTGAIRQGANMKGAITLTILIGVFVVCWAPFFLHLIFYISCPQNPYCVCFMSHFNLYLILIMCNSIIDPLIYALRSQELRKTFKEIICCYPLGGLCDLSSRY

biological target: Melanocortin receptor 4 (Homo sapiens) (UniProt P32245); experiment: MC4R antagonists of cAMP signaling, primary screen, cell-based, TR-FRET, antagonist arm of biased-ligand search (AID 540295); conditions: MC4R-expressing cells, MTII-stimulated cAMP, LANCE TR-FRET; at 6.5 µM; hits give high values;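 note: 0% = Melanotan II alone and 100% = Melanotan II plus saturating MCL0020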

| Compound | inhibition |
| --- | --- |
| O=P1(N(CCCl)CCCl)NCCC(C(F)(F)F)O1 (configuration not stated) | inactive: -0.42% |
| CCOP(=O)(Nc1ccc(C)cn1)OCC | inactive: 1.53% |
| CN(CCCl)Cc1cc(Cl)c(NC2=NCCN2)c(Cl)c1 | inactive: 7.83% |
| CCOP(=O)(NC(=NC(C)c1ccccc1)NC(C)c1ccccc1)OCC (configuration not stated) | inactive: 2.98% |
| CCC1=CC2Cc3nc4ccc(Cl)cc4c(N)c3C(C1)C2 (configuration not stated) | inactive: 1.65% |
| O=P1(Nc2ccccn2)COc2ccccc2OC1 | inactive: 0.1% |
| CCOP(=O)(Nc1cccc2ccccc12)OCC | inactive: 7.41% |
| COc1cc(C2NCCC3(OCCO3)C2(C)C)cc(OC)c1OC (configuration not stated) | inactive: -4.52% |
| CCCOP(=S)(Nc1nc(N)cc(=O)[nH]1)OCCC | inactive: 1.98% |
| Nc1cccc2c([As](=O)(O)O)cccc12 | inactive: 20.7% |
| Cc1ccc(NCCc2c([N+](=O)[O-])cc([N+](=O)[O-])cc2[N+](=O)[O-])cc1 | inactive: 21.8% |
| Cc1cccc(OCC(=O)OC2CN3CCC2CC3)c1 (configuration not stated) | inactive: 2.35% |
| O=[As](O)(c1cccc(O)c1)c1cccc(O)c1 | inactive: 3.52% |
| CS(=O)(=O)c1ccc(Cl)c(NC(=O)COC(=O)C(O)(c2ccccc2)c2ccccc2)c1 | inactive: 7.43% |
| O=[As](O)(O)c1cccnc1 | inactive: 6.54% |
| COc1cc(C(=O)NCC2(N3CCOCC3)CCCCC2)cc(Cl)c1OC(C)C | inactive: 3.55% |
| O=C(OC1CN2CCC1CC2)c1ccc(Cl)cc1 (configuration not stated) | inactive: 4.53% |
| CN(C(=O)Cc1ccc(Cl)c(Cl)c1)[C@H]1CC[C@@]2(CCCO2)C[C@@H]1N1CCCC1 | inactive: 8.61% |
| O=[N+]([O-])c1ccc2c(c1)nnn2O | inactive: 7.86% |
| CN(C)C(=O)c1cc([N+](=O)[O-])cc2c1-c1c(cc([N+](=O)[O-])cc1[N+](=O)[O-])C2=O | inactive: -23.6% |
| CN(C(=O)Cc1ccccc1)[C@@H]1CC[C@]2(CCCO2)C[C@H]1N1CCCC1 | inactive: 15.1% |
| CCOP1(=S)c2c(C)nn(CCC#N)c2N=C(c2ccc(F)cc2)N1C (configuration not stated) | inactive: -6.12% |
| N#CCCN(C(=O)COC(=O)C(O)(c1ccccc1)c1ccccc1)c1ccc(F)cc1 | inactive: 1.49% |
| COc1ccc(CC(C)NCC(O)c2ccc(O)c(NC=O)c2)cc1 (configuration not stated) | inactive: -4.02% and inactive: -5.29% |

| Compound | inhibition |
| --- | --- |
| NC(=O)Nc1ccc([As](=O)(O)O)cc1 | inactive: 1.21% |
| O=C(O)COc1ccc([As](=O)(O)O)cc1[N+](=O)[O-] | inactive: 1.59% |
| Nc1ccccc1[As](=O)(O)c1ccccc1 | inactive: 9.97% |
| CS(=O)(=O)c1cc([N+](=O)[O-])c2no[n+]([O-])c2c1 | inactive: 20.4% |
| O=P(Nc1nccs1)(Oc1ccccc1)Oc1ccccc1 | inactive: -0.37% |
| O=P(Nc1nccs1)(c1ccccc1)c1nc2ccccc2s1 (configuration not stated) | inactive: 18.9% |
| CCOP1(=S)c2c(C)nn(CCC#N)c2N=C(c2ccccc2F)N1C (configuration not stated) | inactive: 4.9% |
| O=[N+]([O-])c1cc([N+](=O)[O-])c(-c2ccn[nH]2)s1 | inactive: -2.48% |
| CC(C)NC(=O)NP(=O)(Oc1ccccc1)Oc1ccccc1 | inactive: -2.75% |
| O=C(OC1CN2CCC1CC2)c1cccc2[nH]cnc12 (configuration not stated) | inactive: 0.46% |
| CCN(CC)C(=S)SC(NC=O)C(Cl)(Cl)Cl (configuration not stated) | inactive: 11.1% |
| COC(=O)C1(C)COP(=O)(N2CCCCCC2)OC1 (configuration not stated) | inactive: 1.52% |
| CC(C)c1ccc(OP(=O)(Nc2ccccn2)Oc2ccccc2F)cc1 (configuration not stated) | inactive: -0.69% |
| ClCCSc1nnc(-c2cccnc2)o1 | inactive: 0.23% |
| Cc1ccc2nc3c(c(C)c2c1)CC(C(Cl)Cl)S3 (configuration not stated) | inactive: 16.5% |
| CC(Cc1ccc(O)cc1)NCC(O)c1cc(O)cc(O)c1 (configuration not stated) | inactive: -6.91% |
| Cc1ccc(OP(=O)(Nc2ccc([N+](=O)[O-])cn2)Oc2ccc(C)cc2)cc1 | inactive: 4.05% |
| O=[N+]([O-])c1ccc(-c2cc([N+](=O)[O-])c(O)c([N+](=O)[O-])c2)cc1 | inactive: 2.01% |
| COc1cc(C(=O)NCC2(N3CCOCC3)CCCCC2)ccc1OCC(C)C | inactive: -8.57% |
| O=[As](O)(c1ccc(O)cc1)c1ccccc1O | inactive: 11.2% |
| C[As](=O)(O)c1cccc(C(=O)O)c1 | inactive: -0.44% |
| COc1ccc(N/C(=N/P(=O)(N2CCOCC2)N2CCOCC2)N2CCOCC2)cc1 | inactive: 9.71% |
| O=[N+]([O-])c1cc(Oc2ccc([N+](=O)[O-])cc2C(F)(F)F)cc([N+](=O)[O-])c1 | inactive: 3.42% |
| COc1cc(I)ccc1[As](=O)(O)O | inactive: 1.88% |

| Compound | inhibition |
| --- | --- |
| COc1ccc2nc(NP(=O)(c3ccccc3)c3ccccc3)sc2c1 | inactive: 4.18% |
| O=P1(N(CCCl)CCCl)Nc2ccccc2N1 | inactive: 5.17% |
| O=P1(N(CCCl)CCCl)OCCCN1CCCl (configuration not stated) | inactive: 4.1% |
| Cc1cc(=O)[nH]c(N[N+](=O)[O-])n1 | inactive: 1.74% |
| O=C(OC1CN2CCC1CC2)C12CC3CC(CC(C3)C1)C2 (configuration not stated) | inactive: 5.75% |
| Cc1c2c(nc3ccccc13)SC(C(Cl)Cl)C2 (configuration not stated) | inactive: -0.97% |
| CCC(C)N(CC(C)C)C(=S)SC(NC(C)=O)C(Cl)(Cl)Cl (configuration not stated) | inactive: 8.16% |
| CCOC(=O)c1ccc(NC(=O)C(C)(CCl)SC)cc1 (configuration not stated) | inactive: 9.89% |
| CSc1ccc(Nc2c([N+](=O)[O-])cc([N+](=O)[O-])cc2[N+](=O)[O-])cc1 | inactive: 1.5% |
| O=C(OC1CN2CCC1CC2)c1cccc([N+](=O)[O-])c1 (configuration not stated) | inactive: 8.39% |
| O=C(Nc1ccncc1[N+](=O)[O-])c1ccc([N+](=O)[O-])cc1[N+](=O)[O-] | inactive: 1.88% |
| O=C(COc1ccccc1)OC1CN2CCC1CC2 (configuration not stated) | inactive: 11.3% |
| O=C(O)C(=O)c1ccc(N(CCCl)CCCl)cc1 | inactive: 0.53% |
| COP1(=S)c2c(C)nn(CCC#N)c2N=C(c2ccc(F)cc2)N1C (configuration not stated) | inactive: 10.7% |
| O=[N+]([O-])c1ccc(Nc2ccc(Oc3ccc([N+](=O)[O-])cc3[N+](=O)[O-])cc2)c([N+](=O)[O-])c1 | inactive: 9.6% |
| Cc1cc(SC(NC=O)C(Cl)(Cl)Cl)ncn1 (configuration not stated) | inactive: 5.74% |
| O=P(Nc1ccccn1)(c1cccc2ccccc12)c1cccc2ccccc12 | inactive: -6.88% |
| CCOC(=O)Nc1cccc([As](=O)(O)O)c1 | inactive: 1.02% |
| Cc1cc(SC(NC(=O)c2ccccc2)C(Cl)(Cl)Cl)nc(C(C)C)n1 (configuration not stated) | inactive: -3.91% |
| CCCCOc1ccc(C(=O)NCC2(N3CCCCC3)CCCCC2)cc1OC | inactive: 2.65% |
| COP(=O)(OC)N1CC1c1ccccc1 (configuration not stated) | inactive: -2.55% |
| CC1CCNP(=O)(N(CCCl)CCCl)O1 (configuration not stated) | inactive: 7.56% |
| O=C(O)C(O)c1ccc(N(CCCl)CCCl)cc1 (configuration not stated) | inactive: -1.27% |
| CCOC(=O)Nc1ccc([As](=O)(O)O)c(O)c1 | inactive: -2.18% |
